This test addresses D(2) dopamine receptor (Rattus norvegicus, UniProt P61169).

Protein sequences, listed by entry. Tags and fused reporters are not part of them.
UniProt P61169, whole entry: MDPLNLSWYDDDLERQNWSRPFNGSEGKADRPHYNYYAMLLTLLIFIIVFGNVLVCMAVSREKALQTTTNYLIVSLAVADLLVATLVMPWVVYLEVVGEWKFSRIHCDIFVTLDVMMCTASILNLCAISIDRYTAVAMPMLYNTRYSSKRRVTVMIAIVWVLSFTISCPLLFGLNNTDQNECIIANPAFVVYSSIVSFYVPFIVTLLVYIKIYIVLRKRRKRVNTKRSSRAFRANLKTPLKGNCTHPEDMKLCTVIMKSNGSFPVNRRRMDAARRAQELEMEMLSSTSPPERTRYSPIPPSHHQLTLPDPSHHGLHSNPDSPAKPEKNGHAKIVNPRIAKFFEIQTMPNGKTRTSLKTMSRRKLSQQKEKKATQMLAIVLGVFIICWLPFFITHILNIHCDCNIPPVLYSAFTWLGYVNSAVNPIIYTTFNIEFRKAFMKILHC

pKi: −log10 of the molar value.

The compound `OCCN1CCN(CC/C=C2/c3ccccc3Sc3ccc(C(F)(F)F)cc32)CC1` [(cis) 2-{4-[3-(2-Trifluoromethyl-thioxanthen-9-ylidene)-propyl]-piperazin-1-yl}-ethanol(Flupentixol)] showed a pKi of 8.08.

For orientation: pKi means the Ki on a negative log10 scale, so that one unit is a factor of ten. Low values mean a high Ki, high ones a low Ki.

For the origin of these results see BindingDB's records for doi:10.1016/0006-8993(87)90040-0 (St, Marianna University School of Medicine, 1987).
